Source: US7473708B2, “Agents with leukotriene B4-like antiviral (enveloped RNA) activities” (priority 1996, dated 2009)

Test system: HSV-1
Assay: Synthesis of HSV-1 particles in Vero cells
Conditions: 30 nM LTB4, five days

Q: CCCCC/C=C\C[C@@H](O)/C=C/C=C/C=C\[C@@H](O)CCCC(=O)O [LTB4, 5S,12R-dihydroxy-6,8,10,14 (Z,E,E,Z)-eicosatetraenoic acid] was tested. Which “inhibition of synthesis of HSV-1 particles (decrease of HSV-1 antigen positive Vero cells)” value did it give?
A: 60%
